Chains of the proteins cited; added tags and fusions are not shown. Residues count along the entry.
UniProt P78352, 61-724 limits assumed: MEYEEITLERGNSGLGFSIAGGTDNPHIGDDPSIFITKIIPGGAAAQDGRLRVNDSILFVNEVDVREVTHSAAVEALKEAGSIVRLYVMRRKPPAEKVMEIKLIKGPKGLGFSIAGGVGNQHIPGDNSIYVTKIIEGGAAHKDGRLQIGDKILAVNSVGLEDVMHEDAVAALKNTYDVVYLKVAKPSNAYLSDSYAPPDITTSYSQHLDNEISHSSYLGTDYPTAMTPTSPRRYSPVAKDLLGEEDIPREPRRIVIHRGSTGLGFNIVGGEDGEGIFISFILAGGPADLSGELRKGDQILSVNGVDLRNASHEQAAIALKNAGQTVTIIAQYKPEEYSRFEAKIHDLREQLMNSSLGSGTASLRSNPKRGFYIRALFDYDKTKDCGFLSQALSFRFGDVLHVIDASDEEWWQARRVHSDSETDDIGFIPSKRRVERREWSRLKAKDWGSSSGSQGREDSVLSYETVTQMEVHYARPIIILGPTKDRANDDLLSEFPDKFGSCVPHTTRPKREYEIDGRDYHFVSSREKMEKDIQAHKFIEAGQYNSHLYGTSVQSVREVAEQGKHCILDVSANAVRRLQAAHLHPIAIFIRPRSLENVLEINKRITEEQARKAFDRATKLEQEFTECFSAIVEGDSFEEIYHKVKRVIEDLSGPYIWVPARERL
UniProt P78352, 313-393 limits assumed: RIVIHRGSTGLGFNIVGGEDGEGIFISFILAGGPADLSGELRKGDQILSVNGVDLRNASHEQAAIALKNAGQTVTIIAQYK
UniProt P78352, 65-151: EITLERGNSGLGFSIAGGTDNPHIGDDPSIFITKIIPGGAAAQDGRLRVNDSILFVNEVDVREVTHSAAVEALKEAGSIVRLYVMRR
UniProt Q12959, 220-554: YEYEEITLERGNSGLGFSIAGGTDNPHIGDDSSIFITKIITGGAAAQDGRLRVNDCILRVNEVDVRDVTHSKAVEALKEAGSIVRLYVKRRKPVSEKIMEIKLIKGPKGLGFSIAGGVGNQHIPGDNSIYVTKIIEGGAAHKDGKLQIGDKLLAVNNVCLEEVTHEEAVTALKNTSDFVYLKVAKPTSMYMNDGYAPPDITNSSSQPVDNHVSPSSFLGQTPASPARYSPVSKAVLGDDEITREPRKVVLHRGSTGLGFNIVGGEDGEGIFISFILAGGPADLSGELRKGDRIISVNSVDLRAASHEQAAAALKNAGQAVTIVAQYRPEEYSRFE
UniProt Q15700, 94-509: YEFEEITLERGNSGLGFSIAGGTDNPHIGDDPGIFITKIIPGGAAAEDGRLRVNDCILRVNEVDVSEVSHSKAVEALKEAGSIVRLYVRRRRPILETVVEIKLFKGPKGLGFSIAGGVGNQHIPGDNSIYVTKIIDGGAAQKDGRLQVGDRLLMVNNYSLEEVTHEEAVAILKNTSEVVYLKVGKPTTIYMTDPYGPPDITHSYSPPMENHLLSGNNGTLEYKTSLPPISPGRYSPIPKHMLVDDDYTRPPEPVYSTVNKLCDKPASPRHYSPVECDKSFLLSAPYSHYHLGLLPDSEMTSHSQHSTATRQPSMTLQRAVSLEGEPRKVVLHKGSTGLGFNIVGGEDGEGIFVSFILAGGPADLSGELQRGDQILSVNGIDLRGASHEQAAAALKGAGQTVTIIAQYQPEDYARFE

According to article PMC4319893, “Targeting Protein-Protein Interactions with Trimeric Ligands: High Affinity Inhibitors of the MAGUK Protein Family” (PLoS ONE, 2015):

Tests used:
PSD-95 FL = target: T1, PSD-95 FL (Homo sapiens, UniProt P78352); test: Fluorescence polarization (FP) binding assay, full length PSD-95; conditions: read-out: Ki, PSD-95 FL, Table S1, CRIPT truncation study, mean ± SEM, n≥3
T1 construct: PSD-95 FL: 61-end; made in house; host or cells: E. coli (pET32m3C vector; construct donated by M. Zhang)

PSD-95 PDZ3 = PSD-95 PDZ3 (Homo sapiens, UniProt P78352); conditions: read-out: Ki, PSD-95 PDZ3; Table S1, CRIPT truncation study; FP; mean ± SEM, n≥3
SAP-97 PDZ1-2-3 = target: T2, SAP-97 PDZ1-2-3 (Homo sapiens, UniProt Q12959); test: Fluorescence polarization (FP) binding assay, SAP-97 PDZ1-2-3; conditions: Table S4, mean ± SEM, n≥3
T2 construct: SAP97 PDZ1-2-3: 220-554; 7xHis; made in house; host or cells: E. coli BL21(DE3)pLysS

PSD-93 PDZ1-2-3 = target: T3, PSD-93 PDZ1-2-3 (Homo sapiens, UniProt Q15700); test: Fluorescence polarization (FP) binding assay, PSD-93 PDZ1-2-3; conditions: Table S4, mean ± SEM, n≥3
T3 construct: PSD93 PDZ1-2-3: 94- 509; 7xHis; made in house; host or cells: E. coli BL21(DE3)pLysS

SAP-102 PDZ1-2-3 = target: T4, SAP-102 PDZ1-2-3 (Homo sapiens, UniProt Q92796); test: Fluorescence polarization (FP) binding assay, SAP-102 PDZ1-2-3; conditions: Table S4, mean ± SEM, n≥3
T4 construct: SAP102 PDZ1-2-3: 127-475; 7xHis; made in house; host or cells: E. coli BL21(DE3)pLysS
T4 sequence (Q92796 127-475): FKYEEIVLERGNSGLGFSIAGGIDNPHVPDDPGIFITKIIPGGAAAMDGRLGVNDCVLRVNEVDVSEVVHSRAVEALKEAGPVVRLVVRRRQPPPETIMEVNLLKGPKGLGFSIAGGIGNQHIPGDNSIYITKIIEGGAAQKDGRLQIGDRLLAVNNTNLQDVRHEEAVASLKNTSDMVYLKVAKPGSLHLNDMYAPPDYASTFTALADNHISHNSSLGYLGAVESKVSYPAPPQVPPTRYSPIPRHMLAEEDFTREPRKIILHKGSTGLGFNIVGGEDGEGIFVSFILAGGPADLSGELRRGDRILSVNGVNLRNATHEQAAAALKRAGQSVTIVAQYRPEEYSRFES

PSD-95 PDZ1 = PSD-95 PDZ1 (Homo sapiens, UniProt P78352); conditions: read-out: Ki PDZ1; Table S2; monomeric GluN2B used as probe; mean ± SEM, n≥3
[1] = competition of the probe with the unlabeled probe
[2] = saturation binding of the probe

| Substance | Ki (PSD-95 FL) [µM] | Ki (PSD-95 PDZ3) [µM] | other results |
| --- | --- | --- | --- |
| KNYKQTSV [CRIPT-08] | 2.1 ± 0.2 | 0.96 ± 0.5 | – |
| KQTSV [CRIPT-05] | 24 ± 4 | 8.2 ± 1 | – |
| LDTKNYKQTSV [CRIPT-11] | 4.6 ± 0.3 | 3 ± 0.6 | – |
| NYKQTSV [CRIPT-07] | 3.7 ± 0.3 | 4 ± 0.3 | – |
| TKNYKQTSV [CRIPT-09] | 3.1 ± 0.1 | – | – |
| YKQASA [Compound 9] | – | > 50 | – |
| YKQTSV [Compound 1] | – | 3.2 ± 1 | Ki (SAP-97 PDZ1-2-3; [1]): 1 ± 0.1 µM; Kd (SAP-97 PDZ1-2-3; [2]): 1.6 ± 0.1 µM; Ki (PSD-93 PDZ1-2-3; [1]): 0.93 ± 0.02 µM; Kd (PSD-93 PDZ1-2-3; [2]): 0.83 ± 0.02 µM; Ki (SAP-102 PDZ1-2-3; [1]): 0.26 ± 0.04 µM; Kd (SAP-102 PDZ1-2-3; [2]): 0.59 ± 0.05 µM; Ki (PSD-95 PDZ1): 86 ± 21 µM |
